Data: US20260382581A1, “COMPOSITIONS COMPRISING CYTISINE IN THE TREATMENT AND/OR PREVENTION OF ADDICTION IN SUBJECTS IN NEED THEREOF” (published 2026)

Key:
[1] = ORCA-3: abnormal laboratory adverse events related to study drug
Description: Routine laboratory safety samples will be analyzed at screening and at clinic visits as identified in Table 15 for each subject by a central laboratory. A decision regarding whether a result outside the reference range is of clinical significance or not will be made by an Investigator, and the report will be annotated accordingly. Clinically significant abnormalities occurring during the study will be recorded on the AE page. The reference ranges for laboratory parameters will also be entered in the database and filed in the Investigator site file.
Hematology: Hemoglobin, red blood cells, white blood cells, neutrophils, lymphocytes, monocytes, eosinophils, basophils, and platelets.
Chemistry: Total protein, albumin, total bilirubin, SGPT (ALT), SGOT (AST), alkaline phosphatase, glucose, sodium, potassium, calcium, creatinine, and urea.

[2] = ORCA-2: adverse events, serious adverse events, discontinuations; conditions: for Mild treatment emergent adverse events, % / Moderate treatment emergent adverse events, % / Severe treatment emergent adverse events, %: % of events
Procedure: Safety was assessed by measurement of vital signs and participant self-report of adverse events and concomitant medications on day 2 and at weekly visits during treatment from week 1 to 12 and through an additional 12-week follow-up. Hematology and chemistry laboratory tests were done at weeks 1, 6, and 12. Electrocardiograms were done at weeks 6 and 12. Clinically significant adverse events or abnormalities were followed until resolution or end of study.
The study had two primary endpoints. They assessed whether cytisinicline produced greater biochemically-confirmed continuous smoking abstinence when compared to placebo during the last 4 weeks of the 6-week treatment (weeks 3 to 6 for Arms B vs. A) and the 12-week treatment (weeks 9 to 12 for Arms C vs. A). Study success was defined as either primary endpoint meeting statistical criterion. The secondary outcome measures were verified continuous cigarette abstinence to week 24 (weeks 3 to 24 for Arms B vs. A; weeks 9 to 24 for Arms C vs. A). A third secondary outcome measure compared the risk of relapse to smoking between weeks 6 and 24 among participants assigned to cytisinicline who achieved abstinence by week 6; these individuals were either switched to placebo at week 6 (Arm B) or continued cytisinicline to week 12 (Arm C). Other pre-specified endpoints included comparing the difference between arms in verified 7-day point-prevalence abstinence at each visit from week 2 through week 24 and assessing for evidence of effect modification for subsets defined by baseline attributes. To assess cigarette craving between groups, the Brief Questionnaire of Smoking Urges (QSU-brief) was administered at clinic visits on Day 0 and at Weeks 1 to 6 (4, 5). Safety outcomes included the incidence of treatment-emergent serious and non-serious adverse events during treatment with cytisinicline or placebo and clinically-significant changes in vital signs, laboratory tests or electrocardiograms.
Analyses for the binary primary and secondary outcomes were based on exact analyses 2×2 tables stratified by clinical site. Missed assessments of primary and secondary endpoints were imputed as non-success, thereby enabling analyses following the intent-to-treat principle. The Hochberg procedure was used to control for multiplicity (6). A target sample of 750 participants (n=250 per arm) was computed and verified using simulations to provide 96% power for specifications of an overall one-sided 0.025 type I error probability and success probabilities of 7% for placebo and 19% for cytisinicline. Sensitivity analyses included assessments of effect modification related to subsets defined by baseline attributes using logistic and cumulative logit models. Longitudinal analyses used Mixed Model for Repeated Measures methodology (7). Safety analyses included all randomized participants who received at least one dose of study drug. Analyses were conducted by BB.

[3] = Arm B, 6 weeks + placebo 6 weeks, N = 269
[4] = Arm B, 6 weeks + placebo 6 weeks

For `O=c1cccc2n1C[C@@H]1CNC[C@H]2C1`, the “Elevated AST Level: severity” value ([1]; start Day 29, 129 IU/L at AE, dose not changed) was “Mild”, the “Elevated ALT Level: severity” value ([1]; start Day 29, 195 IU/L at AE, dose not changed) was “Mild” and the “Elevated ALT Level: outcome of adverse event” value ([1]; start Day 29, dose not changed) was “Recovered/Resolved”. For the same compound, the “Elevated AST Level: outcome of adverse event” value ([1]; start Day 29, dose not changed) was “Recovered/Resolved”, the “Elevated ALT Level: parameter value at AE” value ([1]; start Day 29, value at screening 25 IU/L, dose not changed) was 195 IU/L and the “Elevated AST Level: parameter value at AE” value ([1]; start Day 29, value at screening 29 IU/L, dose not changed) was 129 IU/L. For the same compound, the “Low White Blood Count: parameter value at AE” value ([1]; start Day 85, value at screening 5.1 × 10^9/L) was 2.5e+09 L⁻¹, the “Elevated ALT: severity” value ([1]; start Day 169, 82 IU/L at AE) was “Moderate” and the “Elevated ALT: parameter value at AE” value ([1]; start Day 169, value at screening 50 IU/L) was 82 IU/L. For the same compound, the “Treatment-emergent adverse events, participants” value ([2]; 6-week arm (Arm B)) was 172 (63.9%) n (%), the “Treatment-emergent adverse events, participants” value ([2]; 12-week arm (Arm C)) was 184 (68.2%) n (%) and the “Abnormal dreams, % participants” value [2, 3] was 8.2%. The “Abnormal dreams, n participants” value [2, 3] was 22 n, the “Anxiety, % participants” value [2, 3] was 2.6% and the “Anxiety, n participants” value [2, 3] was 7 n. For the same compound, the “Any serious adverse event, % participants” value [2, 3] was 3.7%, the “Any serious adverse event, n participants” value [2, 3] was 10 n and the “Any treatment emergent adverse event, % participants” value [2, 3] was 63.9%. For the same compound, the “Any treatment emergent adverse event, n participants” value [2, 3] was 172 n, the “Any treatment-related serious adverse event, % participants” value [2, 3] was 0% and the “Any treatment-related serious adverse event, n participants” value [2, 3] was 0 n. The “Constipation, % participants” value [2, 3] was 5.9%, the “Constipation, n participants” value [2, 3] was 16 n and the “Diarrhea, % participants” value [2, 3] was 3.7%. For the same compound, the “Diarrhea, n participants” value [2, 3] was 10 n, the “Headache, % participants” value [2, 3] was 6.7% and the “Headache, n participants” value [2, 3] was 18 n. For the same compound, the “Insomnia, % participants” value [2, 3] was 8.6%, the “Insomnia, n participants” value [2, 3] was 23 n and the “Nausea, % participants” value [2, 3] was 5.9%. The “Nausea, n participants” value [2, 3] was 16 n, the “Number of treatment emergent adverse events” value [2, 3] was 459 n and the “Mild treatment emergent adverse events, %” value [2, 4] was 63.2%. The “Moderate treatment emergent adverse events, %” value [2, 4] was 32.2%, the “Severe treatment emergent adverse events, %” value [2, 4] was 4.6% and the “Abnormal dreams, % participants” value ([2]; Arm C, 12 weeks, N = 270) was 7.8%. For the same compound, the “Abnormal dreams, n participants” value ([2]; Arm C, 12 weeks, N = 270) was 21 n, the “Anxiety, % participants” value ([2]; Arm C, 12 weeks, N = 270) was 5.6% and the “Anxiety, n participants” value ([2]; Arm C, 12 weeks, N = 270) was 15 n. The “Any serious adverse event, % participants” value ([2]; Arm C, 12 weeks, N = 270) was 3.0%, the “Any serious adverse event, n participants” value ([2]; Arm C, 12 weeks, N = 270) was 8 n and the “Any treatment emergent adverse event, % participants” value ([2]; Arm C, 12 weeks, N = 270) was 68.2%. The “Any treatment emergent adverse event, n participants” value ([2]; Arm C, 12 weeks, N = 270) was 184 n, the “Any treatment-related serious adverse event, % participants” value ([2]; Arm C, 12 weeks, N = 270) was 0% and the “Any treatment-related serious adverse event, n participants” value ([2]; Arm C, 12 weeks, N = 270) was 0 n. For the same compound, the “Constipation, % participants” value ([2]; Arm C, 12 weeks, N = 270) was 4.8%, the “Constipation, n participants” value ([2]; Arm C, 12 weeks, N = 270) was 13 n and the “Diarrhea, % participants” value ([2]; Arm C, 12 weeks, N = 270) was 4.4%. The “Diarrhea, n participants” value ([2]; Arm C, 12 weeks, N = 270) was 12 n, the “Headache, % participants” value ([2]; Arm C, 12 weeks, N = 270) was 7.8% and the “Headache, n participants” value ([2]; Arm C, 12 weeks, N = 270) was 21 n. For the same compound, the “Insomnia, % participants” value ([2]; Arm C, 12 weeks, N = 270) was 9.6%, the “Insomnia, n participants” value ([2]; Arm C, 12 weeks, N = 270) was 26 n and the “Nausea, % participants” value ([2]; Arm C, 12 weeks, N = 270) was 5.6%. For the same compound, the “Nausea, n participants” value ([2]; Arm C, 12 weeks, N = 270) was 15 n, the “Number of treatment emergent adverse events” value ([2]; Arm C, 12 weeks, N = 270) was 494 n and the “Mild treatment emergent adverse events, %” value ([2]; Arm C, 12 weeks) was 61.3%. For the same compound, the “Moderate treatment emergent adverse events, %” value ([2]; Arm C, 12 weeks) was 36.0%, the “Severe treatment emergent adverse events, %” value ([2]; Arm C, 12 weeks) was 2.6% and the “Serious adverse events (SAEs), participants” value ([2]; Arms B and C, of 539 participants) was 18 (3.3%) n (%). The “treatment-related SAEs” value ([2]; all arms) was “No SAE was judged to be treatment-related”, the “incidences of abnormal dreams and insomnia vs placebo” value ([2]; cytisinicline arms) was “higher in the cytisinicline arms compared to placebo” and the “OR, serious adverse events” value ([2]; cytisinicline vs placebo, exact 95% CI 0.98 to 13.18) was 3.08.
